This is an account of results in patent publication US20060035940A1, “(S)-Amlodipine malate” (Sepracor Inc., priority 2004, published 2006).

Data set [1] in a line: Multiple-dose pharmacokinetic studies in dogs, oral capsule (AUC, Cmax). The conditions noted are these: dog, in vivo. On the procedure:
The pharmacokinetic parameters AUC and Cmax from three multiple-dose studies in male and female dogs were compared. The 28-day pharmacokinetic assessments were compared. […] All doses were adjusted for salt form so all doses are in terms of mg base/kg. An aliquot of each unknown, standard and control sample was analyzed on a high performance liquid chromatographic system equipped with a Positive-Ion mass spectrometer detector (condition tabled below in Table 10).

Data set [2] in a line: Adhesion studies (tablet punch surfaces, blends with Avicel PH 101). The class given is physicochemical. On the procedure: Avicel PH 101 and each (S)-amlodipine salt were pre-screened through a 25-mesh sieve to delump the powders prior to blending. […] Approximately 500 mg was weighed into the ½-inch tablet die, a tablet punch was added and 0.2 metric tons of pressure was applied using a Carver press for 2-3 seconds. The tablet was then removed, and the surfaces of the tablet punches (concave, SRC) were washed with mobile phase (1 mL). The wash was then assayed by HPLC. Three measurements were made for each blend.

Regarding (S)-amlodipine L-malate, the “bioavailability compared with maleate salt” value in data set [1] was “greater bioavailability than the maleate salt”.
With Succinate, the Adhesion in data set [2] (5% (S)-Amlodipine salt in Avicel) was 1.6E−06 g (S)-amlodipine/cm^2; in data set [2] (25% (S)-Amlodipine salt in Avicel), 3.3E−06 g (S)-amlodipine/cm^2.
